# scFv variants of Ab-14 (light chain) against a SARS-CoV-2 spike peptide

From the AlphaSeq antibody data of Li et al. 2023 (doi:10.1038/s41467-023-39022-2), copy in the FLAb collection.

Binding partner: SARS-CoV-2 spike HR2 peptide, sequence PDVDLGDISGINAS.

Ab-14 is the parent antibody, in scFv form: VH, then a (GGGGS)3 linker, then VL. The heavy chain is unchanged in all variants.
VH: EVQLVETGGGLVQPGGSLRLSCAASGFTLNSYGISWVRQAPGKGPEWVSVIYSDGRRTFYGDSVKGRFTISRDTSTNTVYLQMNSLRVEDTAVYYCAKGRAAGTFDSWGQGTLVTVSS
VL: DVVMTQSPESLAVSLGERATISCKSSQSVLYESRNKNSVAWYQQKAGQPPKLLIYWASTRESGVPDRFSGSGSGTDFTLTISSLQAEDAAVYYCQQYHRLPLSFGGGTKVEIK

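The starting antibody came from a phage panning campaign against this peptide. These sequences belong to a second round, designed from the earlier measurements on random variants of the parent. Group labels follow the data file (Ctrl: baseline library sampled from a position-specific scoring matrix, with some repeated check sequences; En: ensemble of fine-tuned language models; GP: Gaussian process model; GPLM: also part of the Gaussian process libraries; HC: hill climbing; Gen: genetic algorithm; Gibbs: Gibbs sampling; a sequence that several methods proposed may carry one label only). Affinity was read by AlphaSeq, a pooled yeast mating assay with surface-displayed partners. After mating in shaken culture at 30 °C for 16 h, diploids were selected and their barcode pairs sequenced. Each replicate has its own calibration line, from reference interactions of the BCL2 family. Each pool was mated in six replicate cultures.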

Variants are written as CDR1, CDR2 and CDR3 of the light chain (limits as in the source). Parent: KSSQSVLYESRNKNSVA, WASTRES, QQYHRLPLS.
Affinities are written as log10 Kd with Kd in nM; a lower number is a better binder.
Averages over replicates are reported, and they cover detected replicates only.
A pair that was not seen in any replicate is written "no signal"; this usually means weak binding, but a binder can also be missed.
The authors averaged sequences with at least three values out of six and counted those with two or fewer as poor binders.
As a blank, each scFv also met three strains without target: over all light chain designs, 4% of these pairings were detected, typically at 2.64 and seldom below 1.59.
Of ten entries with the parent sequence, four were seen in most replicates (averages 0.34 to 2.37), three in one and three in none, so single entries are noisy.
A sequence measured in both rounds can read differently, since the two assays cover different ranges.

| # | CDR-L1 | CDR-L2 | CDR-L3 | group | mean, log10 nM | detected |
|---|---|---|---|---|---|---|
| 1 | KSSQSVLYESRNKNSVA | EASTRLS | QQYHRLPLS | GP_Gen | 0.36 | 6/6 |
| 2 | KSSQSVLYESMNLNSVA | WASERES | QQYHRLPLS | Ctrl | 1.57 | 6/6 |
| 3 | KLSMQVMMWSRNTNSVA | EANTREE | QQYHRLPLS | GP_Gibbs | 0.67 | 6/6 |
| 4 | KSSQSVLYESRNKSSVA | SASTREI | QQYHRLPLS | Ctrl | 2.96 | 4/6 |
| 5 | KSSPSVLYESRNGNSVA | NASTRES | QQYHRLPLS | GP_HC | -0.11 | 6/6 |
| 6 | KSLISWLYESRNKNSVA | HASTREQ | QQYHRLPLS | GP_HC | 1.42 | 4/6 |
| 7 | KSSQSDLYESRNKNSVA | GASTRES | QQYHRLPLS | GPLM_HC | -0.15 | 6/6 |
| 8 | KLSMTTEMEHTNRNSVA | ELVTRMK | QQYNRLPLS | En_Gen | 1.45 | 6/6 |
| 9 | KLWGSLLAGQSELQSVA | AAEVLRQ | QQYNMLPLS | En_Gibbs | 1.34 | 6/6 |
| 10 | KLSQSVLYESRNKNSVA | WASTREL | QQYHRLPLS | Ctrl | 0.65 | 6/6 |
| 11 | KVSQSELGESRNKMSVA | SASTREK | QQYHRLPLS | GP_Gibbs | 0.70 | 6/6 |
| 12 | KFQQSWLYESRNKNSVA | NASQRES | QQYHRLPLS | GP_Gen | 0.05 | 6/6 |
| 13 | KITATMRFEQKISNNIA | EVTTRSK | QQYFRLPLS | En_Gen | 0.58 | 6/6 |
| 14 | KLSQSVLYDSRNKEPVA | DASTRES | QQYHRLPLS | Ctrl | 0.11 | 6/6 |
| 15 | KMSQSVHYEARNKNSVA | WASTRES | QQYHRLPLS | Ctrl | 1.05 | 6/6 |
| 16 | SLMQVGGYESNNHNSIA | DLRTREQ | QQYHRLPLS | En_HC | 0.22 | 6/6 |
| 17 | KLSQSFLYESRNVNSVA | GASTRDS | QQYHRLPLS | GP_HC | 0.20 | 6/6 |
| 18 | KISQSWLYESRNKNSVA | NASTRMS | QQYHRLPLS | GP_Gen | -0.38 | 6/6 |
| 19 | TLGQVTMVESYNKNSVA | QASTREE | QDYHRLPLS | En_HC | 2.39 | 2/6 |
| 20 | KLSTSVLYEDRNCNAVA | AASTREE | QQYHRLPLS | GP_Gibbs | 0.09 | 6/6 |
| 21 | KLSQSYLYEQRNKNSVA | NASTRES | QQYHRLPLS | GP_Gen | -0.18 | 6/6 |
| 22 | ALFQKGFELHGDRQSIA | HSDTRLA | QQYSRLPLA | En_Gibbs | 1.41 | 6/6 |
| 23 | KLSGATRLESQNKASVA | ENSTRGE | QQYFRLPLA | En_HC | 0.24 | 6/6 |
| 24 | RMDMALTHAHNNVNNIA | EGAMVAD | QQYDRLPLW | En_Gibbs | 0.89 | 5/6 |
| 25 | KFSYSVLYEDRNQNSVA | SASQREQ | QQYHRLPLS | GP_Gibbs | 0.37 | 6/6 |
| 26 | SITYLDNPGSQGHNNIA | SGSCRAE | QQYIRLPLI | En_Gibbs | 0.67 | 6/6 |
| 27 | KIGQTLNQLMHQKNNVA | DLVTREQ | QQYHRLPLS | En_Gen | 0.74 | 6/6 |
| 28 | MISQLYNMGQFAINSVA | QASLRCN | QQYFRLPLE | En_Gen | 1.20 | 5/6 |
| 29 | KSSQSVLYESRNKNSVA | GASTREQ | QQYHRLPLS | Ctrl | no signal | 0/6 |
| 30 | MISDLTMYGSRNKNSVA | DLSVRGS | QQYHRLPLS | En_HC | 0.05 | 6/6 |
| 31 | KSSISYLYESRAKNSVA | EASTRES | QQYHRLPLS | GP_HC | -0.04 | 6/6 |
| 32 | KLSMVTNSEHKVKNSIA | EMVTREK | QQYDRLPLE | En_HC | 0.87 | 6/6 |
| 33 | KFQQSWLYESRNKNSVA | NASCRMS | QQYHRLPLS | GP_Gibbs | 0.03 | 6/6 |
| 34 | KVEQSQLYESRNKNSVA | NASQRES | QQYHRLPLS | GP_Gen | -0.10 | 6/6 |
| 35 | KSSQSVLYESSNKNSVA | YASTRES | QQYARWPLS | Ctrl | no signal | 0/6 |
| 36 | KLSQSKLYESRNKNNVA | EASQRES | QQYHRLPLS | GP_Gen | -0.70 | 6/6 |
| 37 | KFSQSVLYESRQSNSVA | NASTRES | QQYHRLPLS | GP_HC | -0.10 | 6/6 |
| 38 | KLSQSVLYEDRNKNSVA | NASQRMS | QQYHRLPLS | GP_Gen | -0.14 | 6/6 |

Continued, with the values leading:

| # | mean, log10 nM | detected | CDR-L1 | CDR-L2 | CDR-L3 | group |
|---|---|---|---|---|---|---|
| 39 | 0.77 | 6/6 | TLGGAMHSQMHNTNSVA | DLTTRGN | QQYHRLPLS | En_Gen |
| 40 | 1.39 | 6/6 | HMSMLTLQGMRMRNSVA | QMTTREN | QQYDRLPLA | En_Gen |
| 41 | -0.20 | 6/6 | KSSPSVLYESRNKNSVA | NASTREE | QQYHRLPLS | GP_Gibbs |
| 42 | 2.85 | 2/6 | KLSQSVLYERRNKNSVA | WASTRES | QQYHRLPWS | Ctrl |
| 43 | 0.47 | 6/6 | KVDQLVDMESRNKNAVA | SASTRES | QQYHRLPLS | GP_Gibbs |
| 44 | no signal | 0/6 | KSSQSDLMESRNKNSVA | WASTRES | YQYHRLPLS | Ctrl |
| 45 | -0.07 | 6/6 | KLSQEGLYESRNKNSVA | DASTRES | QQYHRLPLS | GP_HC |
| 46 | no signal | 0/6 | QIAMEMYHGLNDAQNVA | DAMTCIK | QQYSRLPLF | En_Gibbs |
| 47 | -0.35 | 6/6 | KVSQSQLYESRNKNSVA | NASQRES | QDYHRLPLS | GP_Gen |
| 48 | 0.91 | 6/6 | KMHTLMYTANIGENSVA | DANLHVD | QQYFRLPLS | En_Gibbs |
| 49 | 0.35 | 6/6 | KIGMTLNTLMHQKNNVA | DLVMRES | QQYHRLPLS | En_Gen |
| 50 | 1.12 | 6/6 | KSSQSVLYESANKNSVA | WASTREA | QQYHRLPLS | Ctrl |
| 51 | 0.53 | 6/6 | KSSQSVLDNARNKNSVA | SASTRES | QQYHRLPLA | Ctrl |
| 52 | -0.35 | 6/6 | KISQSWLYESRNKNAVA | NASTRES | QQYHRLPLS | GP_Gen |
| 53 | 0.00 | 6/6 | HLSQSQLYESRNKNSVA | NASTRLS | QQYHRLPLS | GP_Gen |
| 54 | 0.90 | 5/6 | KLSQSVLYESRNKNSVA | SASTRES | QQYCFLPLS | Ctrl |
| 55 | no signal | 0/6 | KSSDSVLYESANKNSVA | WASTRES | QQYHREPLS | Ctrl |
| 56 | 1.45 | 4/6 | KSSQSVLYLSRNKNSVA | SASTRES | QQIHRLPLS | Ctrl |
| 57 | 2.05 | 3/6 | KMSQSVLYESRNKNSVA | WASTRES | QQYHALPES | Ctrl |
| 58 | 2.03 | 3/6 | KPSQSVLYESRNKNSVA | WASIRES | QQAHRLPLS | Ctrl |
| 59 | 0.32 | 6/6 | KSLQSVLYESRNKNSVA | HASQRED | QQYHRLPLS | GP_HC |
| 60 | 2.22 | 3/6 | KIYMMTGYASRNADSIA | DNSTRGR | QQYHRLPLS | En_HC |
| 61 | 0.43 | 6/6 | KITQTMRFEQKASNNIA | EVTQRSK | QQYYRLPLS | En_Gen |
| 62 | 0.54 | 6/6 | TVTQMAMTGMMSKRSVA | NAETREN | QQYHRLPLI | En_Gen |
| 63 | 2.26 | 2/6 | KSSQSWLEESRNKNSVA | WASTRES | QQYCRLPLS | Ctrl |
| 64 | 0.05 | 6/6 | KLSQSVLYESRVKNSVA | NASQRES | QQYHRLPLS | GP_Gen |
| 65 | no signal | 0/6 | KSWQSVLYESRNKNSVA | WASARES | QQYHRLPLS | Ctrl |
| 66 | 2.07 | 4/6 | KSSQSVLYESTEKNSVA | WASTRVS | GQYHRLPLS | Ctrl |
| 67 | no signal | 0/6 | KSSQSVLYESRNKNSVA | PASTRES | QQYHWLPLS | Ctrl |
| 68 | -0.48 | 6/6 | KVQQSGGMLSRNKNSVA | DASTRES | QQYHRLPLS | GP_Gibbs |
| 69 | -0.10 | 6/6 | TLGDVTRMESNKKNSIA | DMSNRAD | QQYHRLPLS | En_HC |
| 70 | 0.99 | 6/6 | KSSQSVGYESRNKNSVA | EASTRES | QMYHILPLS | Ctrl |
| 71 | 0.49 | 6/6 | KLSQSWLGEWRNFNSVA | HASTREQ | QDYHRLPLS | GP_Gibbs |
| 72 | 0.43 | 6/6 | HMSFLTLGGMRQKNSVA | QMTTREN | QQYDRLPLA | En_Gen |
| 73 | 1.06 | 6/6 | QLEFRDVQGGAEWHAIA | EASQLGQ | QQYFHLPLG | En_Gibbs |
| 74 | 0.14 | 6/6 | KSSISYLMESRNKNSVA | EASTRES | QQYHRLPLS | GP_HC |
| 75 | 0.48 | 6/6 | KFSDSDLLESRTKNSVA | NASTRES | QQYHRLPLS | GP_HC |
| 76 | 0.75 | 6/6 | KSSQSVLGEQRNKNSVA | DASTRES | QQYHELPLS | GP_HC |

The first 7 variants above that were never detected:

| CDR-L1 | CDR-L2 | CDR-L3 | group | mean, log10 nM | detected |
|---|---|---|---|---|---|
| KSSQSVLYESRNKNSVA | GASTREQ | QQYHRLPLS | Ctrl | no signal | 0/6 |
| KSSQSVLYESSNKNSVA | YASTRES | QQYARWPLS | Ctrl | no signal | 0/6 |
| KSSQSDLMESRNKNSVA | WASTRES | YQYHRLPLS | Ctrl | no signal | 0/6 |
| QIAMEMYHGLNDAQNVA | DAMTCIK | QQYSRLPLF | En_Gibbs | no signal | 0/6 |
| KSSDSVLYESANKNSVA | WASTRES | QQYHREPLS | Ctrl | no signal | 0/6 |
| KSWQSVLYESRNKNSVA | WASARES | QQYHRLPLS | Ctrl | no signal | 0/6 |
| KSSQSVLYESRNKNSVA | PASTRES | QQYHWLPLS | Ctrl | no signal | 0/6 |